Assay results reported in patent US6660885B2, “Polycyclic aryl and heteroaryl substituted benzenes useful for selective inhibition of the coagulation cascade” (Pharmacia Corporation, priority 2000, dated 2003).

Amino acid sequences for entries named in this document (tags omitted). Residues count along the entry.
UniProt P08709, 61-212 limits assumed: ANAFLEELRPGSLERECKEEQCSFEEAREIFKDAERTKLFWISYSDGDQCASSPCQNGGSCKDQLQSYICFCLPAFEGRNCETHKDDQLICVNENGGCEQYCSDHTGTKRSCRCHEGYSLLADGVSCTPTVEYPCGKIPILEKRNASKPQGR
UniProt P08709, 213-466 limits assumed: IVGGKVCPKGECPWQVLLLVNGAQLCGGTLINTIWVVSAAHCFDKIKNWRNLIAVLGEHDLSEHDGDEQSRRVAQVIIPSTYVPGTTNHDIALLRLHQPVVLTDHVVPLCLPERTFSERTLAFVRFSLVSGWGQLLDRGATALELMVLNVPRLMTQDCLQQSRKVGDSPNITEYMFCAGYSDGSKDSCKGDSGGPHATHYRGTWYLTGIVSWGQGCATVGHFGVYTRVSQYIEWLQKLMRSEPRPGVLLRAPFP

Target: T1, recombinant soluble tissue factor and recombinant human factor VIIa (TF-VIIa) (Homo sapiens, UniProt P08709)
T1 construct: purchased American Diagnostica, Greenwich Conn; soluble TF made in house in E. coli
Experiment: TF-VIIa Assay (chromogenic substrate hydrolysis, 405 nm)
Type: biochemical
Conditions: read-out: IF-VIIA IC50

**Q.** For CC(C)Nc1ccc(-c2cccc(N)c2)c(CC(=O)NCc2ccc(C(=N)N)cc2)c1F [Example 21], which IC50 is on record?
**A.** 0.34 µM
